This is a selection; strong and weak results do not stand in their true shares. Some salts or complexes appear as unconnected parts, following the source record. Active and inactive are the calls of the source. Rule as the data show it: active = inhibition mostly above about 23% (no sharp cut-off); inactive = mostly below about 18%.
target: 5-hydroxytryptamine receptor 5A (Homo sapiens) (UniProt P47898); assay: HTR5A inverse agonists in luminescence cell assay, primary screen, counter-screen for OPRM1-OPRD1 heterodimer inverse agonist project, full-deck HTS (AID 504634); conditions: HTR5A cell line, inverse agonism, at 9.3 µM, active compounds read high;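 also: 0% = cells with DMSO and 100% = no-cell wells with DMSO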

Chains of the proteins cited; added tags and fusions are not shown.
UniProt P47898, whole entry: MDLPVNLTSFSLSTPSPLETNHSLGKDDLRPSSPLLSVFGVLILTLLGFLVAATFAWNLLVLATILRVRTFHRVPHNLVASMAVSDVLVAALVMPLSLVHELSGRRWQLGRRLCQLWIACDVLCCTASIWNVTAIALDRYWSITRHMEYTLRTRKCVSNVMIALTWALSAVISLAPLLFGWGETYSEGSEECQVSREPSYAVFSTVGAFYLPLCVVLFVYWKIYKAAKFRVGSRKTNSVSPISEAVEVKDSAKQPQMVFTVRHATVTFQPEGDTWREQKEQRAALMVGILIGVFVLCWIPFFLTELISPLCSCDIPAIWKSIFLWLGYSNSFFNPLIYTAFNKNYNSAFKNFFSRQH

Row | Compound | inhibition
1 | Cc1ccccc1NP(C)(=O)Nc1ccccc1C | inactive: 5.7%
2 | CP(=O)(Nc1ccc2c(c1)OCCO2)Oc1ccccc1 (configuration not stated) | inactive: -8.13%
3 | CCOP(C)(=S)SCC(=O)NC(C)(CC)C(=O)O (configuration not stated) | inactive: -2.24%
4 | CP(=O)(Nc1ccc(SC(F)(F)F)cc1)Oc1ccc(F)cc1 (configuration not stated) | inactive: 23.4%
5 | Cc1c(C(c2ccc3c(c2)OCO3)c2c(C)n(C)n(-c3ccccc3)c2=O)c(=O)n(-c2ccccc2)n1C.O=[N+]([O-])c1cc([N+](=O)[O-])c(O)c([N+](=O)[O-])c1 | inactive: 8.09%
6 | O=[N+]([O-])c1cc([N+](=O)[O-])c(NCC2CCS(=O)(=O)C2)c([N+](=O)[O-])c1 (configuration not stated) | inactive: 0.87%
7 | Cc1cc(-c2cccc3ccccc23)c(C)cn1.O=[N+]([O-])c1cc([N+](=O)[O-])c(O)c([N+](=O)[O-])c1 | inactive: -6.47%
8 | O=[N+]([O-])c1ccc(OP2(=O)COCCO2)cc1 (configuration not stated) | inactive: 8.52%
9 | COc1ccc(NP(C)(=O)Oc2ccccc2OC)cc1 (configuration not stated) | inactive: -1.3%
10 | CN(C)CCOC(=O)C(O)(c1ccccc1)C1CCCCC1 (configuration not stated) | inactive: 5.93%
11 | CN(C)C1(CNC(=O)c2ccc(Cl)c(S(N)(=O)=O)c2)CCCCC1 | inactive: -19.2%
12 | COc1ccc(OP(C)(=O)Nc2cccc(Br)c2)cc1 (configuration not stated) | inactive: -3.71%
13 | O=[N+]([O-])c1cc([N+](=O)[O-])c(OC2CCCCC2O)c([N+](=O)[O-])c1 (configuration not stated) | inactive: 18.8%
14 | CCCCCOc1ccc(NP(C)(=O)Oc2ccc(Cl)cc2Cl)cc1 (configuration not stated) | inactive: -6.85%
15 | CP(=O)(Nc1ccccc1)Oc1ccc(F)cc1 (configuration not stated) | inactive: 3.96%
16 | CCN(CC)CCCOC(=O)C(O)(c1ccccc1)C1CCCCC1 (configuration not stated) | inactive: 5.27%
17 | Cc1c([N+](=O)[O-])cc([N+](=O)[O-])c(Br)c1[N+](=O)[O-] | inactive: -14%
18 | COc1ccc(OP(C)(=O)Nc2ccc(SC(F)(F)F)cc2)cc1 (configuration not stated) | inactive: 6.22%
19 | CCOC(=O)c1ccc(NP(C)(=O)Oc2ccc(F)cc2)cc1 (configuration not stated) | inactive: -42.7%
20 | COc1ccc2c(c1O)-c1c(O)c(OC)cc3c1[C@H](C2)[N+](C)(C)CC3.O=[N+]([O-])c1cc([N+](=O)[O-])c([O-])c([N+](=O)[O-])c1[O-] | inactive: -7.42%
21 | O=C(OCCN1CCN(CCOCc2ccccc2)CC1)C(O)(c1ccccc1)c1ccccc1 | inactive: 12.7%
22 | O=C(OC1CN2CCC1CC2)c1ccc([N+](=O)[O-])cc1 (configuration not stated) | inactive: -34.3%
23 | CC(C)c1ccc(OP(C)(=O)Nc2ccc(SC(F)(F)F)cc2)cc1 (configuration not stated) | inactive: -11.5%
24 | CP(=O)(Nc1ccccc1F)Oc1ccccc1 (configuration not stated) | inactive: 18.3%
25 | CCc1ccc(OP(C)(=O)O)cc1 | inactive: 6.81%
26 | CP(=O)(Nc1ccccn1)Oc1ccccc1 (configuration not stated) | inactive: -11.5%

Row | Compound | inhibition
27 | COc1ccccc1OP(C)(=O)Nc1ccc(C)cc1C (configuration not stated) | inactive: -16.2%
28 | Cc1c(NP(C)(=O)Oc2ccc(C(C)C)cc2)c(=O)n(-c2ccccc2)n1C (configuration not stated) | inactive: 1.04%
29 | O=[N+]([O-])c1cc([N+](=O)[O-])c(Nc2ccccn2)c([N+](=O)[O-])c1 | inactive: 29.6%
30 | CN(C)CCOC(=O)C(O)(c1ccccc1)C1CCCC1 (configuration not stated) | inactive: 9.98%
31 | COc1ccc(OP(C)(=O)Nc2ccccn2)cc1 (configuration not stated) | inactive: -29.4%
32 | COc1ccccc1OP(C)(=O)Nc1ccc(Br)cc1 (configuration not stated) | inactive: -17.6%
33 | CP(=O)(Nc1ccc(Cl)cc1Cl)Oc1ccccc1 (configuration not stated) | inactive: 5.76%
34 | CCCCCCCCCCCCCCCC1C[N+](C)(C)CCOP(C)(=O)O1 (configuration not stated) | inactive: 15.4%
35 | CP(=O)(OCCOc1ccccc1)OCCOc1ccccc1 | inactive: -2.14%
36 | COc1ccc(OP(C)(=O)Nc2ccccc2Br)cc1 (configuration not stated) | inactive: 10.4%
37 | COc1ccccc1OP(C)(=O)Nc1ccc(C)c(C)c1 (configuration not stated) | inactive: -7.26%
38 | O=C1C(O)=C([N+](=O)[O-])C(=O)C(O)=C1[N+](=O)[O-] | inactive: -9.73%
39 | Cc1cc(C)cc(OP(C)(=O)Nc2cccc(C(F)(F)F)c2)c1 (configuration not stated) | inactive: -6.44%
40 | CP(=O)(OC12CC3CC(CC(C3)C1)C2)OC12CC3CC(CC(C3)C1)C2 | inactive: 2.74%
41 | CCOC(=O)c1ccc(NP(C)(=O)Oc2ccc(Cl)cc2)cc1 (configuration not stated) | inactive: 11.3%
42 | CCCCN1CCC(C#N)(Nc2ccccc2)CC1 | inactive: 8.8%
43 | CN(C)C(=O)c1c([N+](=O)[O-])cc([N+](=O)[O-])cc1[N+](=O)[O-] | inactive: -2.4%
44 | CP(=O)(Nc1ccc(Cl)cc1)Oc1ccc(F)cc1 (configuration not stated) | inactive: -12.8%
45 | COc1ccccc1OP(C)(=O)Nc1ccccc1Br (configuration not stated) | inactive: 7.03%
46 | CC(C)(C)c1ccc(OP(C)(=O)O)cc1 | inactive: 24.9%
47 | CP(=O)(Oc1ccccc1)N1CCOC1=O (configuration not stated) | inactive: 6.66%
48 | CCc1ccc(OP(C)(=O)Nc2cccnc2)cc1 (configuration not stated) | inactive: -8.4%
49 | COc1ccccc1OP(C)(=O)Nc1c(C)n(C)n(-c2ccccc2)c1=O (configuration not stated) | inactive: 0.96%
50 | O=C(OCCCN1CCCC1)C(O)(c1ccccc1)C1CCCCC1 (configuration not stated) | inactive: 4.97%
51 | CCN(CC)CC(O)COC(=O)C(O)(c1ccccc1)C1CCCCC1 (configuration not stated) | inactive: 5.33%
52 | COc1ccc(OP(C)(=O)Nc2ccc(Br)cc2)cc1 (configuration not stated) | inactive: -6.23%

Row | Compound | inhibition
53 | CP(=O)(Nc1ccccn1)Oc1ccc(Cl)cc1 (configuration not stated) | inactive: 2.12%
54 | CCOP(C)(=S)SCC(=O)NC(C)C(=O)O (configuration not stated) | inactive: -17.9%
55 | CCOC(=O)c1ccc(NP(C)(=O)Oc2ccc(OC)cc2)cc1 (configuration not stated) | inactive: 17.3%
56 | CP(=O)(NC(=O)Nc1ccccc1)Oc1ccccc1 (configuration not stated) | inactive: 22%
57 | CCc1ccc(OP(C)(=O)N2CCN(c3ccc([N+](=O)[O-])cc3)CC2)cc1 (configuration not stated) | inactive: -6.13%
58 | Cc1cc(C)cc(OP(C)(=O)Nc2ccc(SC(F)(F)F)cc2)c1 (configuration not stated) | inactive: -23.2%
59 | O=C(C1CCN(S(=O)(=O)c2cccc3nsnc23)CC1)N1CCn2c1nc1ccccc12 | active: 84.3%
60 | Cc1cccc(C)c1OP(C)(=O)Nc1ccc(SC(F)(F)F)cc1 (configuration not stated) | inactive: 0.57%
61 | CP(=O)(Oc1ccccc1)OC(c1ccccc1)C(F)(F)F (configuration not stated) | inactive: -11%
62 | C=CCC1(Nc2ccccc2)CC(C)N(C)CC1C (configuration not stated) | inactive: -3.19%
63 | COc1ccccc1OP(C)(=O)Nc1ccccc1 (configuration not stated) | inactive: -3.66%
64 | CP(=O)(Nc1ccccc1Br)Oc1ccccc1 (configuration not stated) | inactive: 7.21%
65 | CP(=S)(Nn1cnnc1)Oc1ccccc1 (configuration not stated) | inactive: 11.2%
66 | CCCCOc1ccc(C(=O)NCC2(N3CCCCC3)CCCCC2)cc1OC | inactive: 6.08%
67 | O=C(C1CCN(S(=O)(=O)c2cccc3cccnc23)CC1)N1CCn2c1nc1ccccc12 | active: 84%
68 | COc1ccccc1OP(C)(=O)Nc1cc(Cl)ccc1C (configuration not stated) | inactive: 5.45%
69 | COc1ccc(OP(C)(=O)Nc2cccc(F)c2)cc1 (configuration not stated) | inactive: -0.63%
70 | Cc1cc(C)cc(OP(C)(N)=O)c1 (configuration not stated) | inactive: 4.03%
71 | CCOC(=O)c1ccc(NP(C)(=O)Oc2ccccc2)cc1 (configuration not stated) | inactive: -5.71%
72 | Cc1ccc(NP(C)(=O)Oc2ccccc2)c(C)c1 (configuration not stated) | inactive: -19.1%
73 | CC(C)(C)c1ccc(OP(C)(=O)Nc2ccc(SC(F)(F)F)cc2)cc1 (configuration not stated) | inactive: -0.8%
74 | Cc1cccc(C)c1OP(C)(N)=O (configuration not stated) | inactive: 0.47%
75 | O=[N+]([O-])c1ccc2c(c1)C=Nc1ccccc1O2 | inactive: -0.83%
76 | O=[N+]([O-])c1cc([N+](=O)[O-])c(Nc2cccnc2)c([N+](=O)[O-])c1 | inactive: 38.8%
77 | Cc1n[nH]c(C)c1S(=O)(=O)N1CCC(C(=O)N2CCn3c2nc2ccccc23)CC1 | active: 41.4%
78 | COc1cc(C(=O)NCC2(N3CCOCC3)CCCCC2)ccc1OCC(C)C | inactive: 8.6%

Row | Compound | inhibition
79 | CCN(CC)CCn1c(NCc2ccc(OC)cc2)nc2ccccc21 | inactive: -22.7%
80 | Cc1ccc(S(=O)(=O)NCCC(=O)N2CCN(C/C=C/c3ccccc3)CC2)cc1 | inactive: -21.5%
81 | CCN(CC)CCCOC(=O)C(O)(c1ccccc1)c1ccccc1 | inactive: -13.1%
82 | Cc1cc(C)cc(OP(C)(=O)Nc2ccccn2)c1 (configuration not stated) | inactive: -16%
83 | CP(=O)(Nc1cccc(Br)c1)Oc1ccccc1 (configuration not stated) | inactive: -20.7%
84 | Cc1ccc(C)c(NP(C)(=O)Oc2ccccc2)c1 (configuration not stated) | inactive: 33%
85 | Cc1cc(C)cc(OP(C)(=O)Nc2ccc(C)cc2C)c1 (configuration not stated) | inactive: 11%
86 | CCOC(=O)c1ccc(NP(C)(=O)Oc2cc(C)cc(C)c2)cc1 (configuration not stated) | inactive: 15.6%
87 | COc1cc(C(=O)NCC2(N3CCOCC3)CCCCC2)cc(Cl)c1OC(C)C | inactive: 2.15%
88 | COc1ccccc1OP(C)(=O)Nc1cccc(Br)c1 (configuration not stated) | inactive: -4.46%
89 | CC1=NCCc2c1[nH]c1ccccc21.O=[N+]([O-])c1cc([N+](=O)[O-])c(O)c([N+](=O)[O-])c1 | inactive: 9.28%
90 | O=C(C1CCN(S(=O)(=O)c2cnc[nH]2)CC1)N1CCn2c1nc1ccccc12 | active: 41.4%
91 | O=C(O)c1cccc(Nc2c([N+](=O)[O-])cc([N+](=O)[O-])cc2[N+](=O)[O-])c1 | inactive: 22.8%
92 | CCCOc1ccc(NP(C)(=O)Oc2ccc(Cl)cc2)cc1 (configuration not stated) | inactive: 28.1%
93 | CP(=O)(Nc1ccc(SC(F)(F)F)cc1)Oc1ccccc1 (configuration not stated) | inactive: -10.5%
94 | CN1CCCCC1COC(=O)C1(O)c2ccccc2CCc2ccccc21 (configuration not stated) | inactive: -5.69%
95 | COc1ccccc1OP(C)(=O)Nc1c(C)cccc1C (configuration not stated) | inactive: 7.5%
96 | CC1=C2N=C(C=C3N=C(C(C)=C4[N-][C@@](C)([C@@H]5N=C1[C@](C)(CCC(=O)NC[C@@H](C)OP(=O)([O-])O[C@H]1[C@@H](O)[C@@H](n6cnc7cc(C)c(C)cc76)O[C@@H]1CO)[C@H]5CC(N)=O)[C@@](C)(CC(N)=O)[C@@H]4CCC(N)=O)[C@@](C)(CC(N)=O)[C@@H]3CCC(N)=O)C(C)(C)[C@@H]2CCC(N)=O.[C-]#N.[Co+3] | inactive: 21.6%
97 | CN(C)C1(CNC(=O)c2ccc(S(C)(=O)=O)cc2)CCCCC1 | inactive: 42.2%
98 | O=[N+]([O-])c1cc([N+](=O)[O-])c(Nc2nnnn2CCO)c([N+](=O)[O-])c1 | inactive: 20.4%
99 | CCOC(=O)C(CC)C1=NC(C)(C)Cc2ccccc21.O=[N+]([O-])c1cc([N+](=O)[O-])c(O)c([N+](=O)[O-])c1 (configuration not stated) | inactive: 9.07%
100 | Cc1nc2ccc3ccccc3c2s1.O=[N+]([O-])c1cc([N+](=O)[O-])c(O)c([N+](=O)[O-])c1 | inactive: 9.5%
101 | O=[N+]([O-])c1cc([N+](=O)[O-])c(-c2cnn(-c3ccccc3)c2)c([N+](=O)[O-])c1 | inactive: -1.11%
102 | O=[N+]([O-])c1cc([N+](=O)[O-])c(-n2nnc3ccccc32)c([N+](=O)[O-])c1 | inactive: 0.18%

— PubChem BioAssay AID504634 (The Scripps Research Institute Molecular Screening Center, 2011)
